Assay results reported in publication doi:10.1101/2023.04.08.536099 (bioRxiv, 2023).

Molecular target: T1, CD40L (UniProt P29965 1-261)
T1 sequence (looked up): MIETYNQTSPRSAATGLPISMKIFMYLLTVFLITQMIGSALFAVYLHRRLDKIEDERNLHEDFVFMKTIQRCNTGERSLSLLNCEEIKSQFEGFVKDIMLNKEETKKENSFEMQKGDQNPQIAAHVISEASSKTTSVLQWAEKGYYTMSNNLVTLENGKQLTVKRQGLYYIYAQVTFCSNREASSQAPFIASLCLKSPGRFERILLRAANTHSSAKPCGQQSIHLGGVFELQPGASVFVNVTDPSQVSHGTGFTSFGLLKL
Assay: proximity labelling

B1: CD40 (receptor, UniProt P25942 21-277, looked up)
chain: EPPTACREKQYLINSQCCSLCQPGQKLVSDCTEFTETECLPCGESEFLDTWNRETHCHQHKYCDPNLGLRVQQKGTSETDTICTCEEGWHCTSEACESCVLHRSCSPGFGVKQIATGVSDTICEPCPVGFFSNVSSAFEKCHPWTSCETKDLVVQQAGTNKTDVVCGPQDRLRALVVIPIIFGILFAILLVLVFIKKVAKKPTNKAPHPKQEPQEINFPDDLPGSNTAAPVQETLHGCQPVTQEDGKESRISVQERQ
- labeling ratio (OF1 probe): 63.9%
- labeling ratio (OF2 probe): 50.3%
